From patent publication US20260085058A1, “DEGRADERS OF SON OF SEVENLESS HOMOLOG 1” (H. LEE MOFFITT CANCER CENTER AND RESEARCH INSTITUTE, INC., priority 2022, published 2026)

Columns and labels:
SOS2 mRNA = SOS2 mRNA expression by quantitative RT-PCR in SW620 cells; assay type: cell-based
Method: The RNA samples were quantified by optical density 260/280, 260/230 readings using a spectrophotometer (NanoDrop, Thermo Fisher Scientific, Waltham, MA, USA). […] Quantitative RT-PCR was performed using the MX3000p Real-Time PCR System (Agilent Technologies, Santa Clara, CA, USA) to determine the mRNA expression levels of SOS1, SOS2, and GAPDH. […] This was followed by Amplitaq activation at 50° C. for 2 minutes, 95° C. for 2 minutes, and then 40 cycles at 95° C. for 1 second for denaturing and at 60° C. for 20 seconds for annealing and extension. We calculated ΔCt, defined as the difference between the crossover threshold (Ct) of the target gene and the Ct average of GAPDH for each sample.

MCC19990-002 CRC PDO = test: Organoid drug sensitivity assay (CellTiter-Glo 3D viability); assay type: cell-based, human
Method: (§1) CRC organoids were generated and expanded using a protocol similar to previously published ones for CRC with modifications.^51,52 In brief, the tumor specimen was placed in PBS and then fresh wash media, then minced into approximately 1 mm^3 small fragments using sterile scalpels. Tissue fragments were placed in a Falcon tube with warmed digestion media and then incubated for 30-45 minutes in a 37° C. shaker with agitation at 600 rpm to allow tissue to dissociate into single cells. Larger tissue fragments were allowed to settle under normal gravity for 2 minutes and the supernatant was transferred to a clean Falcon tube. An additional 3 mL of wash media with 10% FBS was added and then centrifuged. Cells were filtered through a […] mesh filter as well as additional 40 μM filter to remove mouse fibroblast. […] When the Matrigel domes solidified, 500 μL of pre-warmed complete growth media was added and incubated in 5% CO2 atmosphere at 37° C. The growth and quantity of the organoid cultures were monitored with fresh growth media added every 2 days. Organoid propagation started from adding digestion media with gentle mechanical digestion. The suspension was incubated in a Falcon tube for 30 minutes, inverted every 10 minutes, and then centrifuged at 1300 rpm for 6 minutes at 4° C. The cell pellet was resuspended in wash media with 0.1% BSA, followed by Matrigel, and then plated as domes. […]

MCC19990-006 CRC PDO = test: as above; assay type: cell-based; conditions: Homo sapiens, 72 h, read-out: IC50, viability of PDO
Method: as §1

MCC19990-010 CRC PDO = test: as above; assay type: cell-based; conditions: Homo sapiens, 72 h, read-out: IC50, viability of PDO
Method: as §1

COc1cc2nc(C)nc(N[C@H](C)c3cc(N)cc(C(F)(F)F)c3)c2cc1O[C@H]1CCOC1 [BI3406, reference compound]
SOS2 mRNA expression level (SOS2 mRNA): upregulated
Viability of PDO (sensitivity) (MCC19990-002 CRC PDO): resistant
IC50 (MCC19990-006 CRC PDO): 8.5 µM
IC50 (MCC19990-010 CRC PDO): 1.9 µM
